# Experiments:
# Protein sequences, listed by entry. Tags and fused reporters are not part of them. Residues count along the entry.
# UniProt P30083, 31-459: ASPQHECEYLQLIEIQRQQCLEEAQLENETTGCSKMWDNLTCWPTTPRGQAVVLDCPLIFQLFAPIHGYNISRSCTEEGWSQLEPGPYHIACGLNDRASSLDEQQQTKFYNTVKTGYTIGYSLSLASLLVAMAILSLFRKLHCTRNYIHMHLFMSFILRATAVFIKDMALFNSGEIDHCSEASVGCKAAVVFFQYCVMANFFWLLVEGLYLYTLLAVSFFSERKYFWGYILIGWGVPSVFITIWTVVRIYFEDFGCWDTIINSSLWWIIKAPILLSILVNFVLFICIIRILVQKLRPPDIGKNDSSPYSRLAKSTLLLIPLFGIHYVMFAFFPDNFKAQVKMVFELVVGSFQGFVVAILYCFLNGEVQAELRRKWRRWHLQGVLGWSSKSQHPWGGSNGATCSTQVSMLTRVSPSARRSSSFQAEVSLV
# rat VPAC2 receptor = molecular target: T1, rat VPAC2 receptor (Rattus norvegicus, UniProt P35000); test: Rat VPAC2 in vitro potency (cAMP generation, DiscoveRx) in transiently transfected CHO-PO cells; assay type: cell-based; conditions: CHO-PO cells transiently transfected with rat VPAC2; read-out: rVPAC2 in vitro potency (cAMP generation) EC50
# T1 construct: expressed in transfected cells; host or cells: CHO-PO cells, transient
# T1 sequence (P35000 23-437): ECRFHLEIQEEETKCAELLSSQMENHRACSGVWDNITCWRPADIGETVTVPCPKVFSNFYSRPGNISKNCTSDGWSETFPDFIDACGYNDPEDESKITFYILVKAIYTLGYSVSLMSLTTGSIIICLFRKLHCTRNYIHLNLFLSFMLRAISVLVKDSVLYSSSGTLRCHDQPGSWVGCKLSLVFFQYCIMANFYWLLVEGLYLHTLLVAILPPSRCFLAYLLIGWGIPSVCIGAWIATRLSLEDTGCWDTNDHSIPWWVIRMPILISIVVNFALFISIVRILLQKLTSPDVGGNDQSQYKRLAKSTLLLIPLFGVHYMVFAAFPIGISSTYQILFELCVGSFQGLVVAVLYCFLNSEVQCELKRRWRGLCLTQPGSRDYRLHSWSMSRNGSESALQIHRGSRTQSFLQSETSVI
# Method: (§1) Rat receptor selectivity is estimated by comparing functional potency (cAMP generation) in CHO-PO cells transiently expressing rat VPAC1 or rat VPAC2 receptors. CHO-PO cells transiently expressing rat VPAC1 or VPAC2, are seeded with 10,000 cells/well three days before the assay. The cells are kept in 200 μL culture medium. […] The stimuli are present for 30 minutes. The assay buffer is then gently removed.
# rat VPAC1 receptor = molecular target: T2, rat VPAC1 receptor (Rattus norvegicus, UniProt P30083); test: Rat VPAC1 in vitro potency (cAMP generation, DiscoveRx) in transiently transfected CHO-PO cells; assay type: cell-based; conditions: CHO-PO cells transiently transfected with rat VPAC1; read-out: rVPAC1 in vitro potency (cAMP generation) EC50
# T2 construct: expressed in transfected cells; host or cells: CHO-PO cells, transient
# Method: as §1
sequence,measurement,setting,value
"HSDAYFTDNYTRLRKQMAVKKYLNSILN [VIP, reference compound]",EC50,rat VPAC2 receptor,0.67 nM
same,EC50,rat VPAC1 receptor,0.015 nM

# Reference: patent US20080146500A1, “Selective Vpac2 Receptor Peptide Agonists” (priority 2004, published 2008)
